Consider 66 molecules from PubChem BioAssay AID2690 (NMMLSC, 2010).

This is a selection; strong and weak results do not stand in their true shares. Calls of active or inactive are those of the source.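 Rule for the calls: active = superoxide response under a set limit, about three screen SD below normal (cut at about 65% in these data); inactive = the rest.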

The assay in a line: yeast aging ROS inhibitors as calorie-restriction mimetics – HTS, primary screen (AID 2690).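 Note: yeast aged for seven days with compound at 30 °C before DHE staining; 100% = average MFI of all compound-treated wells on the plate with controls excluded.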 To be noted: S. cerevisiae aged cells, superoxide DHE fluorescence; at 10 µM; active compounds read low.
Take `CSc1ccccc1C(=O)NCC1(N2CCCCC2)CCCCC1`: the superoxide response (% of plate mean) is inactive: 96.4%.

For the molecule `O=C(NCC1(N2CCCCC2)CCCCC1)c1ccc(=O)[nH]c1`, the superoxide response (% of plate mean) is inactive: 101%.

Regarding `O=C(NCC1(N2CCCCC2)CCCCC1)c1cccs1`, the superoxide response (% of plate mean) is inactive: 103%.

For the molecule `COc1ccc(C(=O)NCC2(N3CCCCC3)CCCCC2)cc1`, the superoxide response (% of plate mean) is inactive: 104%.

As for `CC(C)(C)OC(=O)N1CCC(N(C(=O)c2ccccc2)c2ccc(F)cc2)CC1`, the superoxide response (% of plate mean) is inactive: 103%.

As for `COc1ccc(C(=O)NCC2(N3CCCCC3)CCCCC2)c(OC)c1OC`, the superoxide response (% of plate mean) was inactive: 95.8%.

Regarding `CCOC(=O)N1CCC(Nc2ccc(OC)cc2)CC1`, the superoxide response (% of plate mean) is inactive: 88.8%.

In the case of `N#CC1(Nc2ccccc2)CCN(Cc2ccccc2)CC1`, the superoxide response (% of plate mean) is inactive: 97.7%.

In the case of `O=C(NCC1(N2CCCCC2)CCCCC1)c1ccc(Cl)s1`, the superoxide response (% of plate mean) is inactive: 86.5%.

For the molecule `O=C(OC1CN2CCC1CC2)C1c2ccccc2Oc2ccccc21` (stereo unspecified), the superoxide response (% of plate mean) was inactive: 98.1%.

As to `COc1ccc(Cl)cc1C(=O)NCC1(N2CCOCC2)CCCCC1`, the superoxide response (% of plate mean) is inactive: 88.9%.

For the molecule `O=C(NCC1(N2CCOCC2)CCCCC1)c1cc2ccccc2o1`, the superoxide response (% of plate mean) was inactive: 89.9%.

Regarding `O=C(NCC1(N2CCCCC2)CCCCC1)c1ccc(Cl)nc1`, the superoxide response (% of plate mean) was inactive: 107%.

Take `Cc1cc(C)cc(N(C(=O)c2ccccc2)C2CCN(C(=O)OC(C)(C)C)CC2)c1`: the superoxide response (% of plate mean) was inactive: 94.8%.

On to `O=C(NCC1(N2CCCCC2)CCCCC1)c1ccc(F)cc1`, for which the superoxide response (% of plate mean) was inactive: 104%.

`CCOC(=O)N1CCC(Nc2ccc(F)cc2)CC1`: the superoxide response (% of plate mean) was inactive: 101%.

`COc1ccc(NC2CCN(CCc3ccccc3)CC2)c(OC)c1`: the superoxide response (% of plate mean) was inactive: 134%.

On to `CCOc1ccc(C)cc1CN(CCCl)CCCl`, for which the superoxide response (% of plate mean) was inactive: 102%.

Turning to `CCOC(=O)N1CCC(Nc2cccc(C)c2)CC1`, the superoxide response (% of plate mean) was inactive: 102%.

Consider `COc1cc(C(=O)NCC2(N(C)C)CCCCC2)ccc1OC(F)F`, for which the superoxide response (% of plate mean) is inactive: 105%.

Regarding `Cc1ccc(OCC(C)C)c(CN(CCCl)CCCl)c1`, the superoxide response (% of plate mean) is inactive: 76.6%.

For `O=C(NCC1(N2CCCCC2)CCCCC1)c1cccc([N+](=O)[O-])c1`, the superoxide response (% of plate mean) is inactive: 98%.

As for `CCN1CCC(Nc2ccc(Cl)cc2)CC1`, the superoxide response (% of plate mean) is inactive: 110%.

As for `N#CC1(Nc2ccccc2)CCN(CCc2ccccc2)CC1`, the superoxide response (% of plate mean) was inactive: 104%.

As for `O=C(NCC1(N2CCCCC2)CCCCC1)c1ccc(OC(F)F)cc1`, the superoxide response (% of plate mean) was inactive: 96.4%.

In the case of `COc1ccc(NC2CCN(C(=O)OC(C)(C)C)CC2)cc1`, the superoxide response (% of plate mean) was inactive: 91.8%.

Take `CN1CCN(CCOC(=O)C(O)(c2ccccc2)c2ccccc2)CC1`: the superoxide response (% of plate mean) is inactive: 105%.

As for `O=C(NCC1(N2CCOCC2)CCCCC1)c1cc(=O)[nH]c2ccccc12`, the superoxide response (% of plate mean) was inactive: 93.8%.

Regarding `COc1cc(C(=O)NCC2(N3CCCCC3)CCCCC2)ccc1OC(F)F`, the superoxide response (% of plate mean) is inactive: 91.1%.

Regarding `O=C(NCC1(N2CCCCC2)CCCCC1)c1cccc(C(F)(F)F)c1`, the superoxide response (% of plate mean) is inactive: 96.9%.

As for `COc1cc(OC)c(C(=O)NCC2(N(C)C)CCCCC2)cc1OC`, the superoxide response (% of plate mean) is inactive: 70.5%.

For `O=C(NCC1(N2CCOCC2)CCCCC1)c1cc(F)c(F)cc1Cl`, the superoxide response (% of plate mean) is inactive: 103%.

Turning to `COc1ccc(CN(CCCl)CCCl)cc1Cl`, the superoxide response (% of plate mean) is inactive: 79.4%.

With `CN(C)c1cccc(C(=O)NCC2(N3CCCCC3)CCCCC2)c1`, the superoxide response (% of plate mean) is inactive: 106%.

Regarding `CC(C)c1ccc(NC2CCN(C(=O)OC(C)(C)C)CC2)cc1`, the superoxide response (% of plate mean) is inactive: 90.8%.

Consider `CCCOc1ccc(C(=O)NCC2(N(C)C)CCCCC2)cc1OC`, for which the superoxide response (% of plate mean) was inactive: 94.2%.

For the molecule `CN1CCC(Nc2cccc(F)c2)CC1`, the superoxide response (% of plate mean) was inactive: 124%.

Consider `O=C(NCC1(N2CCCCC2)CCCCC1)c1cncc(Br)c1`, for which the superoxide response (% of plate mean) was inactive: 71.6%.

In the case of `COc1ccc(C(=O)NCC2(N3CCOCC3)CCCCC2)cc1OC`, the superoxide response (% of plate mean) is inactive: 101%.

As for `O=C(NCC1(N2CCOCC2)CCCCC1)c1cc(Br)ccc1Cl`, the superoxide response (% of plate mean) was inactive: 107%.

`COc1cc(C(=O)NCC2(N3CCOCC3)CCCCC2)cc(OC)c1C`: the superoxide response (% of plate mean) was inactive: 115%.

As for `CCc1cc(C(=O)NCC2(N3CCCCC3)CCCCC2)sc1C`, the superoxide response (% of plate mean) was inactive: 80.6%.

As for `O=C(OC1CN2CCC1CC2)C1c2ccccc2C=Cc2ccccc21` (stereo unspecified), the superoxide response (% of plate mean) is inactive: 75.4%.

`N/C(=N\O)c1c(N)no[n+]1[O-]`: the superoxide response (% of plate mean) was inactive: 117%.

For `CCOC(=O)N1CCC(Nc2ccc(C)cc2)CC1`, the superoxide response (% of plate mean) is inactive: 107%.

On to `CC(C)(C)OC(=O)N1CCC(N(C(=O)c2ccccc2)c2ccc(Cl)cc2)CC1`, for which the superoxide response (% of plate mean) was inactive: 101%.

As for `N#Cc1ccc(C(=O)NCC2(N3CCCCC3)CCCCC2)cc1`, the superoxide response (% of plate mean) is inactive: 107%.

Turning to `c1ccc(CN2CCC(Nc3ccccc3)CC2)cc1`, the superoxide response (% of plate mean) was inactive: 86.7%.

Consider `CCCN1CCC(Nc2cc(OC)cc(OC)c2)CC1`, for which the superoxide response (% of plate mean) is inactive: 98%.

Regarding `CN(C)C1(CNC(=O)c2cccc(C#N)c2)CCCCC1`, the superoxide response (% of plate mean) is inactive: 100%.

On to `Cc1ccc(C(=O)NCC2(N3CCCCC3)CCCCC2)o1`, for which the superoxide response (% of plate mean) was inactive: 93.9%.

Regarding `Fc1ccccc1NC1CCN(Cc2ccccc2)CC1`, the superoxide response (% of plate mean) was inactive: 111%.

With `COc1cc(OC)cc(C(=O)NCC2(N3CCCCC3)CCCCC2)c1`, the superoxide response (% of plate mean) was inactive: 111%.

For the molecule `O=C(NCC1(N2CCCCC2)CCCCC1)c1ccco1`, the superoxide response (% of plate mean) is inactive: 138%.

Turning to `CN(C)c1ccc(C(=O)NCC2(N3CCCCC3)CCCCC2)cc1`, the superoxide response (% of plate mean) was inactive: 95.1%.

Take `CCN1CCC(Nc2cccc(F)c2)CC1`: the superoxide response (% of plate mean) is inactive: 105%.

On to `CCCOc1ccc(C(=O)NCC2(N(C)C)CCCCC2)cc1`, for which the superoxide response (% of plate mean) is inactive: 106%.

For the molecule `CC(C)(C)OC(=O)N1CCC(Nc2ccccc2)CC1`, the superoxide response (% of plate mean) is inactive: 96.4%.

As to `O=C(O)C1(Nc2ccccc2)CCN(Cc2ccccc2)CC1`, the superoxide response (% of plate mean) was inactive: 103%.

As to `CCOc1ncccc1C(=O)NCC1(N2CCOCC2)CCCCC1`, the superoxide response (% of plate mean) was inactive: 99.9%.

Turning to `CN1CCC(Nc2ccc(F)c(Cl)c2)CC1`, the superoxide response (% of plate mean) was inactive: 102%.

Take `CCCOc1ccc(C)cc1CN(CCCl)CCCl`: the superoxide response (% of plate mean) is inactive: 90.6%.

As for `CN1CCC(Nc2ccc(Cl)cc2)CC1`, the superoxide response (% of plate mean) was inactive: 100%.

`CCC(CO)(C(=O)OC1CN2CCC1CC2)c1ccccc1` (stereo unspecified): the superoxide response (% of plate mean) was inactive: 90.2%.

In the case of `COc1cccc(C(=O)N(c2cc(C)cc(C)c2)C2CCN(C(=O)OC(C)(C)C)CC2)c1`, the superoxide response (% of plate mean) was inactive: 111%.

In the case of `COc1cc(OC)cc(C(=O)NCC2(N3CCOCC3)CCCCC2)c1`, the superoxide response (% of plate mean) was inactive: 95.5%.
